Results published in PMC7129073 (Clinical Microbiology and Infection, 2015).

Tested on: Staphylococcus coagulase negative (CNS)
Assay: Susceptibility testing
Type: cell-based
Settings: conjunctival isolates 2000–2004

## NC[C@H]1O[C@H](O[C@H]2[C@H](O)[C@@H](O[C@H]3O[C@H](CO)[C@@H](O)[C@H](N)[C@H]3O)[C@H](N)C[C@@H]2N)[C@H](N)C[C@@H]1O [tobramycin]
  resistant isolates: 25.6%
